Measurements from PubChem BioAssay AID623870 (Broad Institute, 2012).
Only a part is listed here, and it is no random draw. Calls of active or inactive are those of the source.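 The calls were made as follows: active = mean inhibition of replicates at least 50% and at least half of replicates each reaching 50%; inconclusive = half or more replicates reach 50% but mean below 50%; inactive = the rest.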

Biological target: Transforming acidic coiled-coil-containing protein 3 (Homo sapiens) (UniProt Q9Y6A5)
Assay: inhibitors of ARNT PAS-B binding to TACC3 – biochemical, AlphaScreen, single concentration, primary screen (AID 623870);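 also: 0% = complete ARNT plus TACC3 wells and 100% = ARNT alone without TACC3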
Details: AlphaScreen His-ARNT PAS-B/GST-TACC3 binding, luminescence; at 9.99 µM; stronger effect = higher value; TACC3 fragment carries E629A point mutation

Structure (SMILES) | inhibition
Nc1cccc2ccc([As](=O)(O)O)cc12 | inactive: 19.9%
NC(=O)c1cc([N+](=O)[O-])cc([N+](=O)[O-])c1N | inactive: 7.58%
CN(C(=O)Cc1ccc(Cl)c(Cl)c1)[C@H]1CCCC[C@H]1N1CCCC1 | inactive: -2.42%
COc1ccccc1OP(=O)(Nc1ccc(C)cn1)Oc1ccccc1OC | inactive: -1.79%
Clc1ccc(Cl)c(NC2=NCC(CBr)S2)c1 (stereo not given) | inactive: -14.7%
CN1CCCC(OC(=O)C(c2ccccc2)c2ccccc2)C1 (stereo not given) | inactive: -1.96%
CC(C)CC(=O)NC(Sc1ccc(Cl)cc1)C(Cl)(Cl)Cl (stereo not given) | inactive: -0.738%
Nc1cc(N)c2nonc2c1[N+](=O)[O-] | inactive: 19.4%
Oc1ccccc1CNc1ccccn1 | inactive: -9.93%
O=C(NC(Sc1ccncn1)C(Cl)(Cl)Cl)c1ccccc1 (stereo not given) | inactive: 3.18%
COc1ccc(C2=NCC(CBr)S2)cc1 (stereo not given) | inactive: -1.41%
O=[N+]([O-])c1cccc2n[nH]nc12 | inactive: -12.1%
CC(=O)N1C2C3N(C(C)=O)C1C1N(C(C)=O)C(C(N1C(C)=O)N3C(C)=O)N2C(C)=O | inactive: -7.37%
Cc1ccc(NP(=O)(Oc2ccccc2)Oc2ccccc2)nc1 | inactive: -5.63%
CCc1nc2c(n1)c1c(non1O)c1c2no[n+]1[O-] | inactive: -30.5%
O=[N+]([O-])c1cc([N+](=O)[O-])c(CCNc2ccccc2)c([N+](=O)[O-])c1 | inactive: 8.27%
C[N+]1=C2C=CC=CC=C2SC12C([N+](=O)[O-])=CC([N+](=O)[O-])=C[C-]2[N+](=O)[O-] (stereo not given) | active: 67.1%
CCN(/C(=N/P(=O)(N1CCOCC1)N1CCOCC1)N1CCOCC1)c1ccc(OC)cc1 | inactive: -8.92%
CC(C)=N/N=C(\N)N[N+](=O)[O-] | inactive: -12.3%
CC1CCN(C(=O)Oc2c(Cl)cc(Cl)c3cccnc23)CC1 | inactive: -8.16%
O=P1(N(CCCl)CCCl)OCCCS1 (stereo not given) | inactive: -5.48%
O=C(Nc1cc([As](=O)(O)O)ccc1O)c1ccccc1 | inactive: -0.599%
CC(C)(C)C(=O)NC(Sc1ccncn1)C(Cl)(Cl)Cl (stereo not given) | inactive: -2.31%
O=[N+]([O-])c1ncn(CCn2ncnc2[N+](=O)[O-])n1 | inactive: 27.1%
O=[N+]([O-])c1cccc(NC2=NCC(CBr)S2)c1 (stereo not given) | inactive: -0.056%

Structure (SMILES) | inhibition
COC(=O)C1(C)COP(=O)(Nc2ccccc2)OC1 (stereo not given) | inactive: -0.46%
O=C(O)CNc1ccc([As](=O)(O)O)cc1 | inactive: -1.05%
CC1CCNP(=O)(N(CCCl)CCCl)O1 (stereo not given) | inactive: -1.69%
CCOC(=O)Nc1ccc([As](=O)(O)O)c(O)c1 | inactive: -8.55%
CCCCOc1ccc(C(=O)NCC2(N3CCCCC3)CCCCC2)cc1OC | inactive: 3.48%
Cc1cc(SC(NC(=O)c2ccccc2)C(Cl)(Cl)Cl)nc(C(C)C)n1 (stereo not given) | inactive: -6.93%
CCOC(=O)Nc1cccc([As](=O)(O)O)c1 | inactive: 29.5%
O=[N+]([O-])c1ccc(Nc2ccc(Oc3ccc([N+](=O)[O-])cc3[N+](=O)[O-])cc2)c([N+](=O)[O-])c1 | inactive: 4.68%
O=P(Nc1ccccn1)(c1cccc2ccccc12)c1cccc2ccccc12 | inactive: -1.12%
Cc1cc(SC(NC=O)C(Cl)(Cl)Cl)ncn1 (stereo not given) | inactive: -3.45%
COP1(=S)c2c(C)nn(CCC#N)c2N=C(c2ccc(F)cc2)N1C (stereo not given) | inactive: 3.23%
O=C(COc1ccccc1)OC1CN2CCC1CC2 (stereo not given) | inactive: -5.31%
O=C(Nc1ccncc1[N+](=O)[O-])c1ccc([N+](=O)[O-])cc1[N+](=O)[O-] | inactive: 10.7%
CCOC(=O)c1ccc(NC(=O)C(C)(CCl)SC)cc1 (stereo not given) | inactive: -2.6%
O=C(OC1CN2CCC1CC2)c1cccc([N+](=O)[O-])c1 (stereo not given) | inactive: -3.02%
CCC(C)N(CC(C)C)C(=S)SC(NC(C)=O)C(Cl)(Cl)Cl (stereo not given) | inactive: 12.7%
O=C(OC1CN2CCC1CC2)C12CC3CC(CC(C3)C1)C2 (stereo not given) | inactive: -4.09%
Cc1c2c(nc3ccccc13)SC(C(Cl)Cl)C2 (stereo not given) | inactive: -9.34%
COc1ccc2nc(NP(=O)(c3ccccc3)c3ccccc3)sc2c1 | inactive: 2.74%
COc1cc(I)ccc1[As](=O)(O)O | inactive: 14.5%
COc1ccc(CN2/C(=N\P(=O)(Oc3ccccc3)Oc3ccccc3)Cc3ccccc3C2C2CC2)cc1 (stereo not given) | inactive: 0.185%
O=P1(N(CCCl)CCCl)Nc2ccccc2N1 | inactive: 4.17%
O=P1(N(CCCl)CCCl)OCCCN1CCCl (stereo not given) | inactive: -9.74%
COc1ccc(N/C(=N/P(=O)(N2CCOCC2)N2CCOCC2)N2CCOCC2)cc1 | inactive: -4.57%
O=[N+]([O-])c1cc(Oc2ccc([N+](=O)[O-])cc2C(F)(F)F)cc([N+](=O)[O-])c1 | inactive: -4.13%
